Test results taken from patent publication US10766873B2, “Zuclopenthixol hydrochloride derivatives and Ebselen derivatives as ErbB2 inhibitors” (Centre National de la Recherche Scientifique (CNRS), priority 2016, dated 2020).

What was measured:
[1] = biological target: V777L ErbB2 (Homo sapiens, UniProt P04626, V777L); experiment: Western blot pY1248, V777L ErbB2 in transfected HBMECs; details: 0, 5, 10 or 20 μM, 48 h; tested form: HCl
Method: (§1) HBMECs cells were transfected with plasmids encoding WT, V777L or V842I and treated with 0, 5, 10 or 20 μM ZU or EB1 for 48 h. ErbB2 activation was then analyzed by western blot analysis using a phospho-ErbB2-specific antibody (pY1248) and a total ErbB2 antibody. Histograms show optical density quantification.

[2] = biological target: FERM/CD44 interaction (Homo sapiens, UniProt P16070); experiment: AlphaScreen counter screen, FERM/CD44 interaction; details: tested form: HCl
From the text: To validate that the Zuclopenthixol hydrochloride (ZU) and its derivatives interact with the juxtamembrane domain of ErbB2, we first analyzed in AlphaScreen® their efficiency to inhibit FERM/ErbB2 interaction in a dose-dependent manner and determined IC50 value. Furthermore, to test the selectivity of those compounds, we tested their ability to disrupt the interaction between the FERM domain and the known ERM binding motif contained in the juxtamembrane region of CD44 as a control.
AlphaScreen® technology was used to assess the interaction between the Ezrin binding motif (EBM) contained in the juxtamembrane portions of ErbB2 or CD44 with the Ezrin FERM domain. For this purpose the Ezrin FERM domain in fusion with Glutathione-S-Transferase (GST) has been coupled to GSH-coated acceptor beads. Biotinylated ErbB2 peptide encoding the Ezrin binding motif (amino acid 674 to 689: biotin-ILIKRRQQKIRKYTMRRL, 26 aa) or the juxtamembrane region of CD44 (biotin-[…] ), for the counter screen have been synthesized and coupled to streptavidin-covered donor beads. […]
The reaction was performed using white 384-well Optiplates (PerkinElmer, Whalham, Mass., USA) in 20 μl (total reaction volume) in a reaction buffer containing PBS, pH 7.4, 5 mM MgCl2 and 0.02% CHAPS. […] Light signal was detected with the EnVision® multilabel plate reader (PerkinElmer). […]

[3] = tested on: V777L ErbB2-transfected cells; experiment: MTT cell proliferation, V777L ErbB2-transfected HBMEC; details: 10 μM, day 3; tested form: HCl
Method: The WT, V777L or V842I ErbB2-transfected cells were treated with 5 or 10 μM of ZU and cell proliferation was determined each day during 3 days using an MTT assay. Non transfected cells were included as a negative control.
The WT, V777L or V842I ErbB2-transfected cells were treated with 5 or 10 μM of EB1 and cell proliferation was determined each day during 3 days using an MTT assay. Non transfected cells were included as a negative control.

[4] = biological target: V842I ErbB2 (Homo sapiens, UniProt P04626, V842I); experiment: Western blot pY1248, V842I ErbB2 in transfected HBMECs; details: 0, 5, 10 or 20 μM, 48 h; tested form: HCl
Method: as §1

[5] = tested on: SKOV3; experiment: MTT cell proliferation, SKOV3; details: 3, 5 and 7 μM, days 2 and 3, serum 1%; tested form: HCl
Method: The ErbB2-overexpressing ovarian cancer cell line SKOV3 and MDAMB-231, a non ErbB2-overexpressing breast cancer cell line were treated with 3, 5 or 7 μM of ZU and cell proliferation was determined each day during 3 days using an MTT assay. Non treated cells were included as a negative control.

[6] = biological target: WT ErbB2 (Homo sapiens, UniProt P04626); experiment: Western blot pY1248, WT ErbB2 in transfected HBMECs; details: 0, 5, 10 or 20 μM, tested form: HCl
Method: (§2) HBMECs cells were transfected with plasmids encoding WT, ΔEBM (a form of ErbB2 carrying mutations in the juxtamembrane domain and unable to bind to the Ezrin FERM domain), V659E or p95 ErbB2 and treated with 0, 5, 10 or 20 μM ZU for 24 h. ErbB2 activation was then analyzed by western blot analysis using a phospho-ErbB2-specific antibody (pY1248) and a tubulin antibody as a loading control. Histograms show optical density quantification.
as §1

[7] = tested on: BT474; experiment: MTT cell proliferation, BT474; details: tested form: HCl
Method: We then analyzed the ability of ZU and EB1 and their derivatives to decrease the ErbB2-dependent cell proliferation. We used the ErbB2-overexpressing human breast cancer cell lines SKBR3 and BT474, as well as two non ErbB2-dependent breast cancer cell lines MCF7 and MDA-MB-231 and normal human endothelial cells (HBMEC) as a control, to discard compounds presenting non-specific toxic effects.
SKBR3, BT474, MCF-7, MDA-MB-231 and HBMEC cells were treated with the compounds as indicated, and cell proliferation was determined each day during 3 days using an MTT assay. Non treated cells were included as a negative control.
A solution of ZU in cis conformation was mixed to a solution of ZU in trans conformation (1:1) to obtain ZU in a 50/50 cis/trans conformation and their respective effects on ErbB2 activation and ErbB2-dependent cell proliferation were analyzed as previously by dot blot analysis using an anti-phosphotyrosine antibody (clone 4G10) and by MTT assays in the ErbB2-overexpressing breast cancer cell line SKBR3, BT474, or HBMEC as a control.

[8] = tested on: BT474; experiment: Soft agar colony formation, BT474; details: 5 or 10 μM, 6 weeks; tested form: HCl
Method: A bottom layer of 0.8% agarose in DMEM supplemented with 20% SVF and penicillin/streptomycin was added to 24 well plates before seeding 25.10^3 SKBR3 or BT474 cells/well in a 0.6% agarose top layer. Cells were left untreated or treated with 5 or 10 μM ZU or EB1 or 5 μM AG1478 (a non-specific ErbB2 kinase inhibitor) as a positive control. Treatments were renewed 3 times a week. After 6 weeks, the number of colonies and their size were quantified using image J software. The colony formation is illustrated for each condition. Data are presented as mean±SEM.

[9] = biological target: V659E ErbB2 (Homo sapiens, UniProt P04626, V659E); experiment: Western blot pY1248, V659E ErbB2 in transfected HBMECs; details: 0, 5, 10 or 20 μM, 24 h; tested form: HCl
Method: as §2

OCCN1CCN(CC/C=C2/c3ccccc3Sc3ccc(Cl)cc32)CC1
ErbB2 V777L activation (in words) [1]: potently decrease | effect on FERM/CD44 interaction ([2]; 1 h): did not interfere | inhibition of FERM/CD44 interaction ([2]; 24 h): 53.32% | decrease of the proliferation of V777L transfected HBMEC [3]: 35% | ErbB2 V842I activation (in words) [4]: potently decrease | decrease of the proliferation of SKOV3 [5]: 50% | activation of WT ErbB2 (in words) ([6]; 24 h): decreased the activation | ErbB2 WT activation (in words) ([6]; 48 h): potently decrease | reduction of BT474 proliferation ([7]; 5 μM, day 2 and 3): 50% | Cell proliferation at d 3 BT474 Max inhibition, % ([7]; day 3): 31.5% | EC50 ([7]; read-out: Cell proliferation at d 3 BT474 EC50, day 3): 6.8 µM | IC50 ([7]; read-out: IC50 BT474 proliferation): 7 µM | anchorage-independent growth of BT474 (in words) [8]: inhibited the anchorage-independent growth | activation of V659E ErbB2 (in words) [9]: decreased the activation
